According to ChEMBL document CHEMBL5365419, “Identification of a Protein Arginine Methyltransferase 7 (PRMT7)/Protein Arginine Methyltransferase 9 (PRMT9) Inhibitor” (J Med Chem, 2023):

Biological target: T1, Protein arginine N-methyltransferase 9 (Homo sapiens) (UniProt Q6P2P2)
T1 sequence (whole entry): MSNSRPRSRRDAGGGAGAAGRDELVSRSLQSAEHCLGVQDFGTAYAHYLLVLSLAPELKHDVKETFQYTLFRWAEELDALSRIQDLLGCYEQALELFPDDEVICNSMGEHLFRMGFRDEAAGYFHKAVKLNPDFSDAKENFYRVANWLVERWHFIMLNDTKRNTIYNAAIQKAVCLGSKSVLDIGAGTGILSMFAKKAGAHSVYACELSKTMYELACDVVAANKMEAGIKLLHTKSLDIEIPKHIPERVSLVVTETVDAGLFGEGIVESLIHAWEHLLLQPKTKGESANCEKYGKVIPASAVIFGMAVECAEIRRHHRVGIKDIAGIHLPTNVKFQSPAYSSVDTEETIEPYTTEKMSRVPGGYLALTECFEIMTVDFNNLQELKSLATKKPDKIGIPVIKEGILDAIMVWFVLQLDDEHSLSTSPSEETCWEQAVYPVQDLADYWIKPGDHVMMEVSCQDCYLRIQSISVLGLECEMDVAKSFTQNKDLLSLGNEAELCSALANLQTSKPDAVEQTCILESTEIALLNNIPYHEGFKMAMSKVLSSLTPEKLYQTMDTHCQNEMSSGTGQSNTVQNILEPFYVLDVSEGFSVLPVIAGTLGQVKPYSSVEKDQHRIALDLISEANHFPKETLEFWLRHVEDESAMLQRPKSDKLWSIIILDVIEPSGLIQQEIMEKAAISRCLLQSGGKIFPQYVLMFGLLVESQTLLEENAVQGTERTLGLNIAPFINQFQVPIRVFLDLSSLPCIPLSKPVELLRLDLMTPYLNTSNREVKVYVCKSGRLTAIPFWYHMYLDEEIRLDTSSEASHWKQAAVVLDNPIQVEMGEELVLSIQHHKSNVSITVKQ
Assay: Inhibition of human GST-fused PRMT9 expressed in Escherichia coli upto 500 uM using human GST-SF3B2 (401 to 550 residues) peptide as substrate and human histone H2B as cosubstrate incubated under 37 degreeC in presence of 3H-SAM by SDS-PAGE based densitometric analysis

inhibition: inactive
SMILES: O=C(NC[C@H](O)CN1CCc2ccccc2C1)c1cc(NC2COC2)ncn1

The source made the active and inactive calls. No cut-off for these calls is given here.
